This note sets out measurements from ChEMBL document CHEMBL1156750 (Bioorg Med Chem Lett, 2009).

Each structure is given as a SMILES string. A value given as a limit tells only on which side of the number the result lay.

For experiment [1], the species on record is Homo sapiens. The experiment can be described thus: Selectivity for human coagulation factor 10a over human t-PA.
The species named for experiment [2] is Homo sapiens. Put plainly: Selectivity for human coagulation factor 10a over human thrombin.
The species named for experiment [3] is Homo sapiens. Put plainly: Selectivity for human coagulation factor 10a over human trypsin.
For experiment [4], the species on record is Homo sapiens. Put plainly: Selectivity for human coagulation factor 10a over human Tryptase.

As to `Cc1cc2cc(N/C(=N\C(=O)c3ccc(C(=O)N(C)C)nc3)N[C@H]3CCCCN(CC(=O)N4CCCC4)C3=O)ccc2o1`, the fold change (FC) in the experiment listed under Homo sapiens [1] was more than 100; in the experiment listed under Homo sapiens [2], more than 440; in the experiment filed under Homo sapiens [3], more than 1500; in the experiment filed under Homo sapiens [4], more than 1500.
